This is an account of results in US12151000B2, “Tolerogenic artificial antigen-presenting cells” (THE JOHNS HOPKINS UNIVERSITY, priority 2019, dated 2024).

One experiment has as its system IL-2Rα^+ YT-1 cells. In words: YT-1 cell STAT5 phosphorylation, IL-2Rα+ cells. Type of experiment: cell-based, human. To be noted: flow cytometry, 20 minutes stimulation. Here is the method:
(§1) YT-1 cell STAT5 phosphorylation studies. Approximately 2×10^5 IL-2Rα^− YT-1 or IL-2Rα^+ YT-1 cells were plated in each well of a 96-well plate and re-suspended in RPMI complete medium containing serial dilutions of the indicated treatments. Cytokine/antibody complexes were formed by incubating a 1:1 molar ratio of F5111 antibody to hIL-2 for 1 hour at 37° C. Cells were stimulated for 20 minutes at 37° C. and immediately fixed by addition of formaldehyde to 1.5% and 10 minute incubation at room temperature. Permeabilization of cells was achieved by resuspension in ice-cold 100% methanol for 30 minutes at 4° C. […] Cells were then washed twice in FACS buffer and mean fluorescence intensity (MFI) was determined on a CytoFLEX flow cytometer (Beckman-Coulter). Dose-response curves were fitted to a logistic model and half-maximal effective concentrations (EC50s) were calculated using GraphPad Prism data analysis software after subtraction of the mean fluorescence intensity (MFI) of unstimulated cells and normalization to the maximum signal intensity. […]
(§2) A cell signaling assay was performed on YT-1 human NK cells with or without IL-2Rα. FIGS. 15A and 15B show STAT5 phosphorylation in response to hIL-2, hIL-2/F5111 complex, F5111 IC LN15, F5111 IC LN25, or F5111 IC LN35 on IL-2Rα^+ cells (FIG. 15A) or IL-2Rα^− cells (FIG. 15B), as measured by flow cytometry.
(A flow cytometer gives signals particle by particle.)

Another experiment concerns IL-2Rα^− YT-1 cells. In words: YT-1 cell STAT5 phosphorylation, IL-2Rα− cells. To be noted: flow cytometry, 20 minutes stimulation. The format is cell-based, human. The protocol:
as §1, §2

In the case of “IL-2: human IL-2 cytokine (residues 1-133), SEQ ID NO: 6 [reference compound]”, the “STAT5 activation on IL-2Rα^+ YT-1 cells” value in the experiment with IL-2Rα^+ YT-1 cells is given as “signals”. The “STAT5 activation on IL-2Rα^− YT-1 cells” value in the experiment with IL-2Rα^− YT-1 cells was “signals”.
